Data: article PMC6276879

Protein sequences, listed by entry. Tags and fused reporters are not part of them. Residues count along the entry.
UniProt O60260, 141-465: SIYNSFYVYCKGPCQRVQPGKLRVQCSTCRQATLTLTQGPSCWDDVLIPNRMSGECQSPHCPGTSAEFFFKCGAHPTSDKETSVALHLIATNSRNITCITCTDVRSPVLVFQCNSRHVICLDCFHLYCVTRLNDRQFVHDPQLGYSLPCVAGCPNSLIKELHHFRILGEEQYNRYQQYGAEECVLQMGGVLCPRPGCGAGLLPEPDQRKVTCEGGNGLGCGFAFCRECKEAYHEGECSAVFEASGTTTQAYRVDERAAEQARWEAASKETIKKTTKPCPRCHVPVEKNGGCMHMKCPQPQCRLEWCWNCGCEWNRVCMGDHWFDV
UniProt P68036, whole entry: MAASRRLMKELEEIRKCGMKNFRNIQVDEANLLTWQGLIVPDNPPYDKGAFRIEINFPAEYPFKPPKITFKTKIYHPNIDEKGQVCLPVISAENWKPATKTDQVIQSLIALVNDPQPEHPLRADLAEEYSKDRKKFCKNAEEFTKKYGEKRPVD

Key:
parkin (Homo sapiens) = parkin (Homo sapiens) (UniProt O60260); conditions: UbcH7 conjugated to Ub, phosphorylated parkin bound to pUb; remark: other sources report otherwise
[1] = biological target: parkin R0RBR (Homo sapiens) (UniProt O60260); assay: ITC; conditions: cited from earlier work

## UbcH7-Ub (from UniProt P68036)
Parkin (Homo sapiens)
  Kd: 500 nM
[1]
  Kd: < 1000 nM
